Laboratory results: PubChem BioAssay (EPA / NIEHS)
These results got no clear call from the source, so the numbers are uncertain. The calls were made as follows: active = hit-call score of the fitted dose curve at least 0.9, where 1 is the maximum; inconclusive = response in the unintended direction; inactive = score below 0.9.

Chains of the proteins cited; added tags and fusions are not shown. Lines headed by an entry give the natural chain unless they say otherwise; changes in a name come on top.
UniProt Q14994: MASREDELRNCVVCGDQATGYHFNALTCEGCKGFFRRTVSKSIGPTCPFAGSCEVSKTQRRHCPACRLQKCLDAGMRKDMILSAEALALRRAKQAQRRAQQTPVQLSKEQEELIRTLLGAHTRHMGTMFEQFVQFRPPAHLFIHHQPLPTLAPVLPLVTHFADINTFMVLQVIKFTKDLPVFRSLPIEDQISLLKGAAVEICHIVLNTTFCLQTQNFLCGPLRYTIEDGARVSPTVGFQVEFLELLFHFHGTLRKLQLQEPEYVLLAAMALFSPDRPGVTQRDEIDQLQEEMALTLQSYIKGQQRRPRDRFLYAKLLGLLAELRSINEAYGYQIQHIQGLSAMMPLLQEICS
UniProt P03372, whole entry, looked up: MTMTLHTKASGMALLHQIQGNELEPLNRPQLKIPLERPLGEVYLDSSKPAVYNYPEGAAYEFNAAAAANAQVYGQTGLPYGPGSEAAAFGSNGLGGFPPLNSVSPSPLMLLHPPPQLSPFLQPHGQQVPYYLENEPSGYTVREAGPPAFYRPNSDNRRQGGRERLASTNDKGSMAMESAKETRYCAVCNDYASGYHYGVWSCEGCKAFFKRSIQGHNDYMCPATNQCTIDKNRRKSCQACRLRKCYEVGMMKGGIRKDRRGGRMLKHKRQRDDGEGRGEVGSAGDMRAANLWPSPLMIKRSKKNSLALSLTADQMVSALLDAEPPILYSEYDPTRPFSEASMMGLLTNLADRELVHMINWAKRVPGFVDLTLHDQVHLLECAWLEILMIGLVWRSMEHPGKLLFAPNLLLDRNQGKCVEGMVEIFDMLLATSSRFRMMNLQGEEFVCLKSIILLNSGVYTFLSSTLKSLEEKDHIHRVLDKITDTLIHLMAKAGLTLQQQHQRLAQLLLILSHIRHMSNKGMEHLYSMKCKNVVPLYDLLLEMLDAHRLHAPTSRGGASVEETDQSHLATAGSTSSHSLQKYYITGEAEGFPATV
UniProt P11474: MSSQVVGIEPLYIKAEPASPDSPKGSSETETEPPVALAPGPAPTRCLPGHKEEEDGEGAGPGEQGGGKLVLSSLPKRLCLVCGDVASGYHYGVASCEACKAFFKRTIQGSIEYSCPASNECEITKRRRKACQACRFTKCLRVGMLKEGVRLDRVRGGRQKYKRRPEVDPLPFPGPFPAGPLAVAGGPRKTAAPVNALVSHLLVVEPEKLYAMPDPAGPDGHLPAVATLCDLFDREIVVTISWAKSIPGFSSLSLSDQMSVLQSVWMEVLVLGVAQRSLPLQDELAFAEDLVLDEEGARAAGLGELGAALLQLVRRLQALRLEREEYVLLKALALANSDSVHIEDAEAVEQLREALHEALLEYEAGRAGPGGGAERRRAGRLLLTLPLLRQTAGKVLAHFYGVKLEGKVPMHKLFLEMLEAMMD
UniProt P10275: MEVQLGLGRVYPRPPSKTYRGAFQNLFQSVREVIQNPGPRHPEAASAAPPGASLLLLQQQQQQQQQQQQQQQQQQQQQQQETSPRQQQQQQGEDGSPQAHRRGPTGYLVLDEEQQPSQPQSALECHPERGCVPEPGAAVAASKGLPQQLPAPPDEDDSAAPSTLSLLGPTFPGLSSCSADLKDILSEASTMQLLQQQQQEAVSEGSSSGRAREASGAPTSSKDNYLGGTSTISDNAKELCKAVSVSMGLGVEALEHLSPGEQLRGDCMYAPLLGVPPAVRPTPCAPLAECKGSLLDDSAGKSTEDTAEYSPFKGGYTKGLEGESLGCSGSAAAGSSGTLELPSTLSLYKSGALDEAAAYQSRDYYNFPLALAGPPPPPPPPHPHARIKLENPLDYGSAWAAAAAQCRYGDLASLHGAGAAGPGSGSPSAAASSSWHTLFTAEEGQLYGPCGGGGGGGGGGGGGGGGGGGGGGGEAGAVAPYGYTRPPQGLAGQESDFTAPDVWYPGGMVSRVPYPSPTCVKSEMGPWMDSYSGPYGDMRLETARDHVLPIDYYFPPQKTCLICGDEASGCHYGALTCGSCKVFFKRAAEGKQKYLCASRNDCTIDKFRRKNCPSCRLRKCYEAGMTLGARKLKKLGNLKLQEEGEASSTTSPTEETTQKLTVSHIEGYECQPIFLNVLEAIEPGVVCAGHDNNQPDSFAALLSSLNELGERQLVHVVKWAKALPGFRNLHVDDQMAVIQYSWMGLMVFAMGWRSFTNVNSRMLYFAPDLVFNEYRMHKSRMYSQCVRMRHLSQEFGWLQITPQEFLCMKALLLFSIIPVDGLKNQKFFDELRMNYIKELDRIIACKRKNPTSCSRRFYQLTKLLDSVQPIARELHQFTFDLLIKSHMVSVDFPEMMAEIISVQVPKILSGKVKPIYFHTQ
UniProt Q13133, whole entry, looked up: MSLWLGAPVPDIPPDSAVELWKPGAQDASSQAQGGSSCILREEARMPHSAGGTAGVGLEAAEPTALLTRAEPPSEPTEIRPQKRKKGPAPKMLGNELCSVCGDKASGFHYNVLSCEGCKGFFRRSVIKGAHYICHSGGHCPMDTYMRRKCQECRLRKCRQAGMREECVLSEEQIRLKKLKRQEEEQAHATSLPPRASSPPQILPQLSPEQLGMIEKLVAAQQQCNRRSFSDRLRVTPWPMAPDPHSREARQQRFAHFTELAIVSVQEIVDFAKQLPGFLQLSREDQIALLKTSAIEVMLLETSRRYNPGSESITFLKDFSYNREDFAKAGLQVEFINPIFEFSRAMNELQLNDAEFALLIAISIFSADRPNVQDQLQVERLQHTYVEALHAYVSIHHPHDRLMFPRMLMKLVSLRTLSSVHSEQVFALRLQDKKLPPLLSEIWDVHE
UniProt P55055, whole entry, looked up: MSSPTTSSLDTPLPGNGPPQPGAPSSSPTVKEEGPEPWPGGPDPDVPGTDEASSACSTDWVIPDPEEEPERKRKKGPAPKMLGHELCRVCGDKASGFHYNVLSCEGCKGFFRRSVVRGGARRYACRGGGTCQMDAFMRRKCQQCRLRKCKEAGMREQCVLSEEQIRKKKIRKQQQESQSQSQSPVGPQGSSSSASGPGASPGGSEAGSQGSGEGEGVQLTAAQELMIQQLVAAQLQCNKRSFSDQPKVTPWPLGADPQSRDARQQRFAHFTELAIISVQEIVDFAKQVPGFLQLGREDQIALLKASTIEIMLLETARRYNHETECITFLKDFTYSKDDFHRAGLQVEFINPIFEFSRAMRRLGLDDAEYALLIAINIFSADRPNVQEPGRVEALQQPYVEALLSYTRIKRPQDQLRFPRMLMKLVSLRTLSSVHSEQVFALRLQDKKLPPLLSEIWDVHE
UniProt P43354, whole entry, looked up: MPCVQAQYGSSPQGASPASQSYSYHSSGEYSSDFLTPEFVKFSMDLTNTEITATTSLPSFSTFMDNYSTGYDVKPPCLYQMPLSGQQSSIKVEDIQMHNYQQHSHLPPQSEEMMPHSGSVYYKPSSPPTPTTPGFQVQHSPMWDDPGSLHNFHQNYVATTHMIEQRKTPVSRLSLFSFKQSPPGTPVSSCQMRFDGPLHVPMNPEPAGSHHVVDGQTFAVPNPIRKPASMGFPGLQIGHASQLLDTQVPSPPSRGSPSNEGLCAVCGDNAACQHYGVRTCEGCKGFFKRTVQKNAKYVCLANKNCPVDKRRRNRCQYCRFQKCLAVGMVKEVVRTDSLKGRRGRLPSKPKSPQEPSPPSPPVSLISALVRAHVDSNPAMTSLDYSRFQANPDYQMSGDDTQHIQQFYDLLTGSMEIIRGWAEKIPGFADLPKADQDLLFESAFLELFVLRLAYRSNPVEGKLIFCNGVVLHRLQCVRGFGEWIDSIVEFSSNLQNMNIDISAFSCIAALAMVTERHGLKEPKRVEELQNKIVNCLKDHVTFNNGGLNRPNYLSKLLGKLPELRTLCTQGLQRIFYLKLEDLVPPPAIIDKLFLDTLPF
UniProt Q92753: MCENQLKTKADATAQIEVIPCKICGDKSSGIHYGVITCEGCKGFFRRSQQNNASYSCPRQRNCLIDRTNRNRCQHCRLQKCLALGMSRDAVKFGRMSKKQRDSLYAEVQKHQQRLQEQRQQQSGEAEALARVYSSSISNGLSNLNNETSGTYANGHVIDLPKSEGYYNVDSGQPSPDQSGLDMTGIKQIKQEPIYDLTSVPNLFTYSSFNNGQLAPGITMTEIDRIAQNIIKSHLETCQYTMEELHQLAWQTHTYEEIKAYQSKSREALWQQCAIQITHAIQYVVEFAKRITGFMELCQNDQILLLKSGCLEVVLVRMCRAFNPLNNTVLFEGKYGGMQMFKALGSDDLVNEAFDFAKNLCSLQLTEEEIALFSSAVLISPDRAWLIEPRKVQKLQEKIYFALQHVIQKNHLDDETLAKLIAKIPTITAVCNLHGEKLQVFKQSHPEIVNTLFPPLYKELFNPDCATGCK
UniProt P10827: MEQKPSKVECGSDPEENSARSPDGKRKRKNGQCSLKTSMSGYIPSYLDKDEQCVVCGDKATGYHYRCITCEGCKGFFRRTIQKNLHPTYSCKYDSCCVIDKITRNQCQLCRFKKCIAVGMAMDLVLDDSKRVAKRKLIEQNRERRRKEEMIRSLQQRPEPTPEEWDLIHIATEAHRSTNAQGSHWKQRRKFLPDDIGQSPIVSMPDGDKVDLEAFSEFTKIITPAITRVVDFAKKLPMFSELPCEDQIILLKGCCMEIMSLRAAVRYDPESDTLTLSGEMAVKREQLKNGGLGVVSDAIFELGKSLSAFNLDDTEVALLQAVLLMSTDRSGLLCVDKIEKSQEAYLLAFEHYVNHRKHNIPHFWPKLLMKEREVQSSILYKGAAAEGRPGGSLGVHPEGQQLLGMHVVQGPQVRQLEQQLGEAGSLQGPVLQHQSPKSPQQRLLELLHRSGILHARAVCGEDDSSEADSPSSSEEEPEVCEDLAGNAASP
UniProt P21709: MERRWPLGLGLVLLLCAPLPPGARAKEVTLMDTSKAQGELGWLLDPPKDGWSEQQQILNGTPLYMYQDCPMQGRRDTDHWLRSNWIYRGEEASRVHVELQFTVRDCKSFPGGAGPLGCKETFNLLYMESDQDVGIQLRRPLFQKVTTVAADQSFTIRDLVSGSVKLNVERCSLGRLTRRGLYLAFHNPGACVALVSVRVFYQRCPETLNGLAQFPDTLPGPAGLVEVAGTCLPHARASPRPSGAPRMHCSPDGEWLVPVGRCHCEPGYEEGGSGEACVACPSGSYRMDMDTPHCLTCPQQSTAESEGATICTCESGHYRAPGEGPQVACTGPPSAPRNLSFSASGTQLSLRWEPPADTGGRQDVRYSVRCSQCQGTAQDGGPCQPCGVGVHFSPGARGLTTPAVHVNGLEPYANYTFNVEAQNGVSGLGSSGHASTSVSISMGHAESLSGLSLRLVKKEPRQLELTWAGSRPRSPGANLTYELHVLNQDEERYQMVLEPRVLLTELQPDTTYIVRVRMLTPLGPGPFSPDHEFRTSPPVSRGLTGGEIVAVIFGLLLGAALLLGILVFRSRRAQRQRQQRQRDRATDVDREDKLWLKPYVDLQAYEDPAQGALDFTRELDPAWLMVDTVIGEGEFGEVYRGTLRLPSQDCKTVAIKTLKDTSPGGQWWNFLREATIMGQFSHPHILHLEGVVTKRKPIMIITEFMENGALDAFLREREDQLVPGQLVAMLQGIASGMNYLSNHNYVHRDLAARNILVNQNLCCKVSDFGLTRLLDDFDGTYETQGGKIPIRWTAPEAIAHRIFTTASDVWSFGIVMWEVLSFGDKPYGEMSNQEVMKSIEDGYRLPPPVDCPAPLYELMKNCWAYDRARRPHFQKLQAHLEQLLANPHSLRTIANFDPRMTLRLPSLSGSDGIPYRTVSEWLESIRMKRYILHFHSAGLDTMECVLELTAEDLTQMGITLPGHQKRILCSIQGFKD
UniProt Q2NNR5: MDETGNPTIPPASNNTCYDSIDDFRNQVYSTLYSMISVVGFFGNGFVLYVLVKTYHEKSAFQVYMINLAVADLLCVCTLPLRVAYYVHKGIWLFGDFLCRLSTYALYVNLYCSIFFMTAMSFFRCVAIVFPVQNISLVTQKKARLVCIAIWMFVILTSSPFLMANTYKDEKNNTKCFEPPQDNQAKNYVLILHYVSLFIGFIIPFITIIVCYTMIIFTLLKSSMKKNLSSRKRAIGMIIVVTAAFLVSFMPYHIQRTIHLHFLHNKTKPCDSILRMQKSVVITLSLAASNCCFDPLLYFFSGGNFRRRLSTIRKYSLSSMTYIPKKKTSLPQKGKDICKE

Key:
[1] = biological target: Nuclear receptor subfamily 1 group I member 3 (Homo sapiens) (UniProt Q14994); assay: ATG_CAR_TRANS: Attagene TRANS-FACTORIAL HepG2 Assay for human Constitutive Androstane Receptor (CAR) (AID 2282969); conditions: HepG2 Attagene TRANS-FACTORIAL CAR reporter;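 also: activators raise reporter mRNA above DMSO so AC50 marks induction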
How it was run: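 Transiently transfected HepG2, multiplex TRANS reporters (CAR-Gal4 chimera driving GAL4-UAS reporter). 24 h dosing. Readout: reporter transcript by RT-PCR + capillary electrophoresis, fluorescence intensity; positive direction vs DMSO.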

[2] = biological target: Estrogen receptor (Homo sapiens) (UniProt P03372); assay: ATG_ERa_TRANS: Attagene TRANS-FACTORIAL HepG2 Assay for human Estrogen Receptor alpha (ERa) (AID 2282970); conditions: HepG2 Attagene TRANS ERa GAL4 reporter, mRNA
How it was run: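 Gal4-fusion ERa transactivation, measured as reporter transcript level in transiently transfected HepG2 cells. Exposure 24 h; RT-PCR plus capillary electrophoresis with fluorescence detection.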

[3] = biological target: Steroid hormone receptor ERR1 (Homo sapiens) (UniProt P11474); assay: ATG_ERRa_TRANS: Attagene TRANS-FACTORIAL HepG2 Assay for human Estrogen-Related Receptor alpha (ERRa) (AID 2282971); conditions: HepG2 Attagene TRANS reporter, ERRa transactivation
How it was run: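 HepG2 cells transiently transfected with GAL4-UAS reporter units and chimeric NR-Gal4 constructs; after 24 hour compound incubation, reporter mRNA quantified by RT-PCR, fluorescent labelling and capillary electrophoresis, gain of signal versus DMSO.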

[4] = biological target: Androgen receptor (Homo sapiens) (UniProt P10275); assay: ATG_AR_TRANS: Attagene TRANS-FACTORIAL HepG2 Assay for human Androgen Receptor (AR) (AID 2282973); conditions: HepG2 Attagene TRANS-FACTORIAL AR reporter transcription
How it was run: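 HepG2 cells transiently transfected with AR-Gal4 chimera and GAL4-UAS reporter units; chemical exposure 24 h. Reporter mRNA quantified by RT-PCR with fluorescent labelling and capillary electrophoresis; gain-of-signal fitted against DMSO.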

[5] = biological target: Oxysterols receptor LXR-alpha (Homo sapiens) (UniProt Q13133); assay: ATG_LXRa_TRANS: Attagene TRANS-FACTORIAL HepG2 Assay for human Liver X Receptor alpha (LXRa) (AID 2282980); conditions: HepG2 Attagene TRANS reporter, LXRa transactivation
How it was run: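 HepG2 cells transiently transfected with GAL4-UAS reporter units for chimeric NR-Gal4 proteins, exposed to chemicals for 24 h. Reporter mRNA quantified by RT-PCR and capillary electrophoresis; gain of signal fitted relative to DMSO.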

[6] = biological target: Oxysterols receptor LXR-beta (Homo sapiens) (UniProt P55055); assay: ATG_LXRb_TRANS: Attagene TRANS-FACTORIAL HepG2 Assay for human Liver X Receptor beta (LXRb) (AID 2282981); conditions: HepG2 Attagene TRANS GAL4-LXRb reporter, mRNA
How it was run: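 Readout: fluorescent reporter mRNA fragments resolved by capillary electrophoresis after RT-PCR. System: transiently transfected human HepG2, exogenous LXRb-Gal4 chimera driving GAL4-UAS reporter, 24 h dosing. Activity fitted upward against DMSO baseline.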

[7] = biological target: Nuclear receptor subfamily 4 group A member 2 (Homo sapiens) (UniProt P43354); assay: ATG_NURR1_TRANS: Attagene TRANS-FACTORIAL HepG2 Assay for human Nuclear Receptor Related Protein 1 (NURR1) (AID 2282985); conditions: HepG2 Attagene TRANS reporter, mRNA readout
How it was run: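 Read-out: reporter mRNA induction by RT-PCR plus capillary electrophoresis with fluorescence detection, after 24 h dosing of transfected HepG2 cells. Exogenous NR-Gal4 chimera activity drives GAL4-UAS reporter; activity fitted upward versus DMSO.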

[8] = biological target: human RAR-related Orphan Receptor beta (RORb), RORB (gene 6096) (UniProt Q92753); assay: ATG_RORb_TRANS: Attagene TRANS-FACTORIAL HepG2 Assay for human RAR-related Orphan Receptor beta (RORb) (AID 2283010);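 also: potency for increased reporter mRNA meaning activation of RORb-Gal4 chimera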
How it was run: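 HepG2, transient MRTU transfection (GAL4-UAS reporters, exogenous NR-Gal4 chimeras); 24 h compound exposure; total RNA → RT-PCR → 6-FAM primer extension → HpaI digest → CE fluorescence. Positive direction vs DMSO baseline.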

[9] = biological target: human Thyroid Receptor alpha (THRa1), THRA (gene 7067) (UniProt P10827); assay: ATG_THRa1_TRANS: Attagene TRANS-FACTORIAL HepG2 Assay for human Thyroid Receptor alpha (THRa1) (AID 2283014)
How it was run: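 HepG2 cells transiently transfected with chimeric NR-Gal4 and GAL4-UAS reporter units, dosed 24 h. Reporter mRNA quantified by RT-PCR, fluorescent labeling, HpaI digestion and capillary electrophoresis; gain-of-signal fit versus DMSO.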

[10] = biological target: human Ephrin type-A Receptor 1 (EphA1), EPHA1 (gene 2041) (UniProt P21709); assay: NVS_ENZ_hEphA1: NovaScreen (NVS) Enzymatic Assay for human Ephrin type-A Receptor 1 (EphA1) (AID 2283158);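 also: activity is signal loss versus DMSO meaning EphA1 kinase inhibition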
How it was run: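 Cell-free kinase activity with recombinant protein, 1 hour after dosing; product separated by electrophoretic mobility shift, fluorescence read. Primary screen at 25 uM in duplicate; hits run as concentration-response up to 50 uM, relative to DMSO.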

[11] = biological target: guinea pig Leukotriene D4 Receptor (LTD4), CYSLTR1 (gene 100135514) (UniProt Q2NNR5); assay: NVS_GPCR_gLTD4: NovaScreen (NVS) G Protein-Coupled Receptor Assay for guinea pig Leukotriene D4 Receptor (LTD4) (AID 2283248)
How it was run: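 Guinea pig lung membrane preparation; bound radioligand measured by filter scintillation after 1 h, loss of signal versus DMSO marking displacement. Compounds tested at 25 uM in duplicate, hits retested to max 50 uM.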

[12] = ATG_XTT_Cytotoxicity: Cytotoxicity Assessment in the Attagene TRANS-FACTORIAL HepG2 Assay (AID 2283584);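 also: XTT signal for cell number as viability in transfected HepG2 cells; cells exposed to compound for 24 h before reading; active means loss of viability signal versus DMSO baseline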
How it was run: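 HepG2 cells transiently transfected with GAL4-UAS multiple reporter units, dosed 24 h; cytotoxicity read by XTT as loss of signal versus DMSO baseline.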

Measured: AC50

CCCCO[P+](=O)OCCCC
inconclusive: [1] 100 µM | [2] 100 µM | [3] 100 µM | [4] 23.8 µM | [5] 6.34 µM | [6] 100 µM | [7] 180 µM | [8] 82.3 nM | [9] 83.1 nM | [10] 25 µM | [11] 195 nM | [12] 100 µM
